B1: RAC-alpha serine/threonine-protein kinase (Homo sapiens), P31749 (parent)
chain: MSDVAIVKEGWLHKRGEYIKTWRPRYFLLKNDGTFIGYKERPQDVDQREAPLNNFSVAQCQLMKTERPRPNTFIIRCLQWTTVIERTFHVETPEEREEWTTAIQTVADGLKKQEEEEMDFRSGSPSDNSGAEEMEVSLAKPKHRVTMNEFEYLKLLGKGTFGKVILVKEKATGRYYAMKILKKEVIVAKDEVAHTLTENRVLQNSRHPFLTALKYSFQTHDRLCFVMEYANGGELFFHLSRERVFSEDRARFYGAEIVSALDYLHSEKNVVYRDLKLENLMLDKDGHIKITDFGLCKEGIKDGATMKTFCGTPEYLAPEVLEDNDYGRAVDWWGLGVVMYEMMCGRLPFYNQDHEKLFELILMEEIRFPRTLGPEAKSLLSGLLKKDPKQRLGGGSEDAKEIMQHRFFAGIVWQHVYEKKLSPPFKPQVTSETDTRYFDEEFTAQMITITPPDQDDSMECVDSERRPHFPQFSYSASGTA
partner: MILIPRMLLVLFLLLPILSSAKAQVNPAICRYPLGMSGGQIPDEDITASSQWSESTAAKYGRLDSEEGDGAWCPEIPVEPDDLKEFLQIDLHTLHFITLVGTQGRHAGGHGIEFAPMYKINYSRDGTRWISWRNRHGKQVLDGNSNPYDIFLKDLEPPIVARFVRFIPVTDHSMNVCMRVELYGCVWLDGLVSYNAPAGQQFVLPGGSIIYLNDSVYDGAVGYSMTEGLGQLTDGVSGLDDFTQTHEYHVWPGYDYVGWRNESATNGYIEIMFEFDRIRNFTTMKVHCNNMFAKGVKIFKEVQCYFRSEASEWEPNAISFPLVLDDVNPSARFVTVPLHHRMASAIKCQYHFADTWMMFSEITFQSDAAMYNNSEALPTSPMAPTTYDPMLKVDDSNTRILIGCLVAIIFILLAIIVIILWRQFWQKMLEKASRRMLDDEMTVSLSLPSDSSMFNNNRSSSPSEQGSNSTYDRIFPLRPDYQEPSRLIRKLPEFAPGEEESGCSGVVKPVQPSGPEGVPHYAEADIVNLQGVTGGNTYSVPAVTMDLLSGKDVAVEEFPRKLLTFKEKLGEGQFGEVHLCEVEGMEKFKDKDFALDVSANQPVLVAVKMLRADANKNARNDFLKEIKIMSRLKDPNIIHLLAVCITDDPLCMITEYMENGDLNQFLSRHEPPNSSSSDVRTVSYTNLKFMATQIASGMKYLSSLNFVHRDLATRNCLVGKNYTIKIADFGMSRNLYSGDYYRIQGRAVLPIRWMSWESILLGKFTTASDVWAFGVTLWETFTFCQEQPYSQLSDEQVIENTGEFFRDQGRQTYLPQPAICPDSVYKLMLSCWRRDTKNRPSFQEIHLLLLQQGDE
B2: RAC-alpha serine/threonine-protein kinase (Homo sapiens), P31749 (parent)
chain: B1 chain
partner: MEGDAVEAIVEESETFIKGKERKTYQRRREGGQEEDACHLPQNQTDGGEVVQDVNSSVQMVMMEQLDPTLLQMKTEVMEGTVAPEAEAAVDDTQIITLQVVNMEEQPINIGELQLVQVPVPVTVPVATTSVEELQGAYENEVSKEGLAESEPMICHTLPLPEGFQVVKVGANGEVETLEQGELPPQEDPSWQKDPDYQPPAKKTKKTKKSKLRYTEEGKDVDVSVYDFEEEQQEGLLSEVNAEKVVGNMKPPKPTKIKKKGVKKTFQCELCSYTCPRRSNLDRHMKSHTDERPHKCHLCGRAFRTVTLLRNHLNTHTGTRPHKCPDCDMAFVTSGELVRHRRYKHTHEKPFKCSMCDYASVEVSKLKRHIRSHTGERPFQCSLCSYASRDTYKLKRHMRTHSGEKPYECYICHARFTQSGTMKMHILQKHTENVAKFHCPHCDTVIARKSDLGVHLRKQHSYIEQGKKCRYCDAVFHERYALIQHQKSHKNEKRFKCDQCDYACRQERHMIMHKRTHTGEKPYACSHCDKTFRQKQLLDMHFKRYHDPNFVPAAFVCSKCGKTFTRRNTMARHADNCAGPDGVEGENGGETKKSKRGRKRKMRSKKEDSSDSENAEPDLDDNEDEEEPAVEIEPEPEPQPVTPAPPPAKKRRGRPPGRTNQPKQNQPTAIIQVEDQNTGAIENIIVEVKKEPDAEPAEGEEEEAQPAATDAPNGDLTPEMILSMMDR
B3: RAC-alpha serine/threonine-protein kinase (Homo sapiens), P31749 (parent)
chain: B1 chain
partner: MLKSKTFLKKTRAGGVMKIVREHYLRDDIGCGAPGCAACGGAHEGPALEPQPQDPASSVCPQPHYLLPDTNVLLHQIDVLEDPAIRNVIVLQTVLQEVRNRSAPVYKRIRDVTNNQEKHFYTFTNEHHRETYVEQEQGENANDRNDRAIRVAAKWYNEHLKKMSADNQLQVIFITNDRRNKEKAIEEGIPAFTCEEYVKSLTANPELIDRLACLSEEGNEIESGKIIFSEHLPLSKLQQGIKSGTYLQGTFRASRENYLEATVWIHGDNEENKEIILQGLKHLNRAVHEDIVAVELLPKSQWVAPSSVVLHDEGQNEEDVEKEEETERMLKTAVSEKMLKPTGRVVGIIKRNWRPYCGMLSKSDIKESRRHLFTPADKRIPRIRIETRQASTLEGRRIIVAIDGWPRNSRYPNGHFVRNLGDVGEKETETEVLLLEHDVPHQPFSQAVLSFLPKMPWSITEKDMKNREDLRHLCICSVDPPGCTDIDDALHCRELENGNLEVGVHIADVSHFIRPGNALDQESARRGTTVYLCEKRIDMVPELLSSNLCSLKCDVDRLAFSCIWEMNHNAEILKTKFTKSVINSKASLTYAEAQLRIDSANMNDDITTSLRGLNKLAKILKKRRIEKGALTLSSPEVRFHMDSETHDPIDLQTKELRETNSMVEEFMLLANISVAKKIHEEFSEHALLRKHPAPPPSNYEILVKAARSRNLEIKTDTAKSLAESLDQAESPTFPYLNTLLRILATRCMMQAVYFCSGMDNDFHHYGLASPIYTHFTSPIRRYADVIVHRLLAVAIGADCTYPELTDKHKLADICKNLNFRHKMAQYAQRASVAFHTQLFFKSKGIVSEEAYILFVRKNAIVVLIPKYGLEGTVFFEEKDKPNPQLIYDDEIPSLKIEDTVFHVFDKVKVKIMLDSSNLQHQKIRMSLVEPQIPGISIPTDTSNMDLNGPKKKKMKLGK

Variants of: B1
Conditions: with ddr2_human DDR2, Q16832

Row | effect of a mutation on the interaction | Variant
1 | with no effect | MSDVAIVKEGWLHKRGKYIKTWRPRYFLLKNDGTFIGYKERPQDVDQREAPLNNFSVAQCQLMKTERPRPNTFIIRCLQWTTVIERTFHVETPEEREEWTTAIQTVADGLKKQEEEEMDFRSGSPSDNSGAEEMEVSLAKPKHRVTMNEFEYLKLLGKGTFGKVILVKEKATGRYYAMKILKKEVIVAKDEVAHTLTENRVLQNSRHPFLTALKYSFQTHDRLCFVMEYANGGELFFHLSRERVFSEDRARFYGAEIVSALDYLHSEKNVVYRDLKLENLMLDKDGHIKITDFGLCKEGIKDGATMKTFCGTPEYLAPEVLEDNDYGRAVDWWGLGVVMYEMMCGRLPFYNQDHEKLFELILMEEIRFPRTLGPEAKSLLSGLLKKDPKQRLGGGSEDAKEIMQHRFFAGIVWQHVYEKKLSPPFKPQVTSETDTRYFDEEFTAQMITITPPDQDDSMECVDSERRPHFPQFSYSASGTA [E17K]

Variants of: B2
Conditions: with ctcf_human CTCF

Row | effect of a mutation on the interaction | Variant
2 | with no effect | MSDVAIVKEGWLHKRGKYIKTWRPRYFLLKNDGTFIGYKERPQDVDQREAPLNNFSVAQCQLMKTERPRPNTFIIRCLQWTTVIERTFHVETPEEREEWTTAIQTVADGLKKQEEEEMDFRSGSPSDNSGAEEMEVSLAKPKHRVTMNEFEYLKLLGKGTFGKVILVKEKATGRYYAMKILKKEVIVAKDEVAHTLTENRVLQNSRHPFLTALKYSFQTHDRLCFVMEYANGGELFFHLSRERVFSEDRARFYGAEIVSALDYLHSEKNVVYRDLKLENLMLDKDGHIKITDFGLCKEGIKDGATMKTFCGTPEYLAPEVLEDNDYGRAVDWWGLGVVMYEMMCGRLPFYNQDHEKLFELILMEEIRFPRTLGPEAKSLLSGLLKKDPKQRLGGGSEDAKEIMQHRFFAGIVWQHVYEKKLSPPFKPQVTSETDTRYFDEEFTAQMITITPPDQDDSMECVDSERRPHFPQFSYSASGTA [E17K]

Variants of: B3
Conditions: with rrp44_human DIS3, Q9Y2L1

Row | effect of a mutation on the interaction | Variant
3 | with no effect | MSDVAIVKEGWLHKRGKYIKTWRPRYFLLKNDGTFIGYKERPQDVDQREAPLNNFSVAQCQLMKTERPRPNTFIIRCLQWTTVIERTFHVETPEEREEWTTAIQTVADGLKKQEEEEMDFRSGSPSDNSGAEEMEVSLAKPKHRVTMNEFEYLKLLGKGTFGKVILVKEKATGRYYAMKILKKEVIVAKDEVAHTLTENRVLQNSRHPFLTALKYSFQTHDRLCFVMEYANGGELFFHLSRERVFSEDRARFYGAEIVSALDYLHSEKNVVYRDLKLENLMLDKDGHIKITDFGLCKEGIKDGATMKTFCGTPEYLAPEVLEDNDYGRAVDWWGLGVVMYEMMCGRLPFYNQDHEKLFELILMEEIRFPRTLGPEAKSLLSGLLKKDPKQRLGGGSEDAKEIMQHRFFAGIVWQHVYEKKLSPPFKPQVTSETDTRYFDEEFTAQMITITPPDQDDSMECVDSERRPHFPQFSYSASGTA [E17K]

Source: IntAct's records for PubMed 35512704
